These are literature values, as cited in patent US20220354840A1, “NICOTINE POUCH” (Enorama Pharma AB, priority 2019, published 2022).

The conditions of the data set: at 25° C.; cited from earlier work.

Regarding `CC(C)[C@@H]1CC[C@@H](C)C[C@H]1O` [L-Menthol], the Solubility in water is 0.49 mg/ml at 25 °C.
